Only a part is listed here, and it is no random draw.

Amino acid sequences for entries named in this document (tags omitted).
Serine/threonine-protein kinase B-raf (Homo sapiens), P15056, UniProt P15056, whole entry V600E: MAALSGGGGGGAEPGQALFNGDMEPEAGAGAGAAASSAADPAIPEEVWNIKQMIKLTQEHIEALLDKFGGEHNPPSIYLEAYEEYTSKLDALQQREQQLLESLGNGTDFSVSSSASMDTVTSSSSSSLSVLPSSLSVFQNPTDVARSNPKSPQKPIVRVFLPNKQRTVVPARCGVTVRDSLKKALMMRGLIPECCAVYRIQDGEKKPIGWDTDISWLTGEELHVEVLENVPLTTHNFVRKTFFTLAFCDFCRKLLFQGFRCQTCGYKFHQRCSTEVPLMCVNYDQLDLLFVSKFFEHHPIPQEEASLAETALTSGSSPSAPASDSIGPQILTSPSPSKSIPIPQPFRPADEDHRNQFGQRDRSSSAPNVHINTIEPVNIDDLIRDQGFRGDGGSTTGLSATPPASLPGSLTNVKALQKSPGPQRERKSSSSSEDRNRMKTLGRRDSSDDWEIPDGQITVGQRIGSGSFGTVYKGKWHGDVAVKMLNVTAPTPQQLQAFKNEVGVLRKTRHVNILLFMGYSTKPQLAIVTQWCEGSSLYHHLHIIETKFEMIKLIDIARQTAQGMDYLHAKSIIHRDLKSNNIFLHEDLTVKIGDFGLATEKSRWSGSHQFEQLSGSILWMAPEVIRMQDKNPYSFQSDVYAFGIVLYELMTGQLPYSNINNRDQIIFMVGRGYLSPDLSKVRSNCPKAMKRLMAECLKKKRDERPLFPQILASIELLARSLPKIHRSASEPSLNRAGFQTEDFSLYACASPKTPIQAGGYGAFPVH

Drawing on ChEMBL document CHEMBL1961873, “Compounds: GSK PKIS; Assays: Nanosyn kinase panel” (2012), this text covers inhibition for one compound.

In the assay the test system is Serine/threonine-protein kinase B-raf (Homo sapiens), P15056 [V600E]. Conditions: at 1 µM.
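Note: enzyme inhibition of the BRAF V599E mutant kinase, given as mean percent inhibition, screened within the GSK PKIS kinase inhibitor set.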

In the case of `O=C1Nc2ccc(I)cc2C1=Cc1cc(Br)c(O)c(Br)c1`, the inhibition (commonly the change of the read-out against control, counted positive when it falls) amounted to 13.7%.
